Measured values as given in patent US20240075005A1, “Treatment of Overactive Bladder with Oxybutynin Applied By Means of a Vaginal Ring” (LIGALLI BV, priority 2021, published 2024).

Assay: Pharmacokinetic trial: single 3 mg intravaginal dose of oxybutynin HCl delivered by the MedRing vaginal ring, plasma LC/MS/MS
Type: in vivo, human (female subjects)
Excerpt: This trial investigated the feasibility of pulsed intra-vaginal delivery of oxybutynin and explored systemic exposure after application via the MedRing device.
The trial included female subjects of childbearing potential (women of childbearing potential, WOCBP) aged between 18 and 45 years (inclusive) and female postmenopausal subjects aged between 50 and 69 years (inclusive); Postmenopausal status is defined as age≥50 years and having >12 months amenorrhoea in the absence of hormonal therapy that may cause amenorrhoea.
The MedRing was manufactured by Demcon Holding, The Netherlands, and filled with 100 mg/mL oxybutynin HCl. Oxybutynin HCl was dissolved in 50% propylene glycol/50% water for injection. The MedRing was pre-filled with 1-2 mL of oxybutynin 100 mg/mL, from which a controlled dose of up to 30 μL (=3 mg) was administered at least 15 minutes after intra-vaginal insertion of the MedRing by trained medical personnel.
Subjects began a 4-hour pre-dose fasting period before arriving to the clinic until 2 hours post-dose. Upon arrival, the subjects underwent pre-dose measurements to re-confirm eligibility for the study and to perform baseline measurements. The MedRing was inserted intra-vaginally by medically trained personnel. […]
Plasma oxybutynin concentrations were measured by a validated LC/MS/MS method by Ardena Bioanalytical Laboratories, Assen, The Netherlands. […]

In the case of `CCN(CC)CC#CCOC(=O)C(O)(c1ccccc1)C1CCCCC1` (centres unmarked) [oxybutynin], the “parent:metabolite ratio (oxybutynin:N-desethyloxybutynin) on the AUCinf” value (female, human, in vivo, 3 mg) was 1:1.3 and the “plasma concentrations relative to known safety window” value (intravaginal via MedRing) was “well within the known safety window”.
